Values quoted from earlier work in patent US9289495B2, “Systems and methods for treatment of allergies and other indications” (Strategic Science & Technologies, LLC, priority 2011, dated 2016).

**Q.** Which pKa does the source give for CN(C)CCC(c1ccccc1)c1ccccn1 (stereo not shown) [pheniramine] here?
**A.** 9.3-9.4
